# Laboratory results published in patent publication US12331052B2, “Organic compounds” (INTRA-CELLULAR THERAPIES, INC., priority 2018, dated 2025).
# Chains of the proteins cited; added tags and fusions are not shown.
# UniProt P31645, whole entry, looked up: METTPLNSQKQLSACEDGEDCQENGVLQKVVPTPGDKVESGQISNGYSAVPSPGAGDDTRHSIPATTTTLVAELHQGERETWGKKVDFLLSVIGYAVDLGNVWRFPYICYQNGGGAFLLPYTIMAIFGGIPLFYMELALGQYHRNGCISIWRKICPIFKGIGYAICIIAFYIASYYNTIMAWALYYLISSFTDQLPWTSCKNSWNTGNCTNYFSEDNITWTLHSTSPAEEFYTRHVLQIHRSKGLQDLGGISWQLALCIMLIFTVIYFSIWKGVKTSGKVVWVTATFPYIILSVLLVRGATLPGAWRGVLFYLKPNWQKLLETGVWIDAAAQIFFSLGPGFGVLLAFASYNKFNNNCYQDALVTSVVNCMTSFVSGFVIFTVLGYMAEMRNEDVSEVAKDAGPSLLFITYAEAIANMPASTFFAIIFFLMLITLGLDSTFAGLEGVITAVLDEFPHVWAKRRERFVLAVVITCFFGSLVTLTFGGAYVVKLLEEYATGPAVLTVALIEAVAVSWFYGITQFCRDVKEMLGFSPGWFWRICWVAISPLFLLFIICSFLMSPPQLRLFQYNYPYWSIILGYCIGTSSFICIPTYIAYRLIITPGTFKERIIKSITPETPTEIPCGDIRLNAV
# Legend:
# [1] = molecular target: SERT (Homo sapiens, UniProt P31645); experiment: Receptor binding, SERT; conditions: @ 200 nM
# [2] = system: male C57BL/6J mice; experiment: Oxycodone-dependent withdrawal study in mice; format: in vivo; conditions: (1) Oxycodone; (2) Compound 3.0 mg/kg, (3) Naloxone 3 mg/kg
# [3] = system: C57 mice; experiment: Formalin paw test (inflammatory pain model); format: in vivo; conditions: SC 1.0 mg/kg; 0-10 min
# [4] = system: recombinant human MOP-beta-arresting signaling pathway; conditions: read-out: EC50 (stimulation of beta-arrestin signaling)
molecule,measurement,setting,value
O=c1[nH]c2cccc3c2n1[C@H]1CCN(CCCOc2ccc(F)cc2)C[C@@H]31,maximum inhibition,[1],0% @
"O=C1CN2c3c(cccc3[C@@H]3CN(CCCOc4ccc(F)cc4)CC[C@@H]32)N1 [Example 1, (6bR,10aS)-8-(3-(4-fluorophenoxy)propyl)-6b,7,8,9,10,10a-hexahydro-1H-pyrido[3′,4′:4,5]pyrrolo[1,2,3-de]quinoxalin-2(3H)-one]",Paw Tremors,[2],0.5
same,Mean Behavior Rating (0-4),[3],1.3
Met-enkephalin,EC50,[4],80 nM
